Results from patent publication US20250177423A1, “PHOTORESPONSIVE PEPTIDE DELIVERY SYSTEM AND METHOD OF USING THE SAME” (THE UNIVERSITY OF HONG KONG, priority 2023, published 2025).
Residues, ends and D or L forms follow the SMILES beside them. *: point of attachment. X1 = COc1ccc(/C=C/C2=[N+]3C(=C(COC(=O)*)c4c(C)cc(/C=C/c5ccc(OC)cc5)n4[B-]3(C)C)C(C)=C2)cc1

Key:
CT26 cells = test: Cytotoxicity in CT26 cells; conditions: after light irradiation (LED, 656 nm, 100 mW/cm^2)
[1] = Encapsulation efficiency and loading content in cAS16/PLA5k-PEG2k/elesclomol-Cu NPs; type: physicochemical

Row | Structure (SMILES) | cytotoxicity to CT26 cells (CT26 cells) | encapsulation efficiency [1] [%] | loading content [1] [%]
1 | COc1ccc(/C=C/C2=[N+]3C(=C(COC(=O)N[C@@H](C)C(=O)N[C@H](C(=O)N[C@@H](Cc4c[nH]c5ccccc45)C(=O)N[C@@H](CC(C)C)C(=O)N4CCC[C@H]4C(=O)N4CCC[C@H]4C(=O)N[C@@H](CCCNC(=N)N)C(=O)N[C@@H](C)C(=O)N[C@@H](C)C(=O)N[C@@H](CC(N)=O)C(=O)N[C@@H](CC(C)C)C(=O)N[C@@H](CC(C)C)C(=O)N[C@@H](CCSC)C(=O)N[C@@H](C)C(=O)N[C@@H](C)C(=O)N[C@@H](CO)C(=O)O)[C@@H](C)O)c4c(C)cc(/C=C/c5ccc(OC)cc5)n4[B-]3(C)C)C(C)=C2)cc1 [LAMP] (X1-ATWLPPRAANLLMAAS-OH) | no cytotoxicity |  | 
2 | CN([N-]C(=O)CC(=O)[N-]N(C)C(=[SH+])c1ccccc1)C(=[SH+])c1ccccc1.[Cu] [elesclomol-Cu] |  | 13.25 | 8.82
